From PubChem BioAssay (NCI)
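Dose response: 5 concentrations. Exposure: 48 h. Format: 96-well plates. Endpoint: linear interpolation; highest concentration if not reached. The concentration for 50% growth inhibition is given as GI50. TGI denotes the concentration required for complete inhibition of growth.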

Legend:
Experiment in all cases: NCI anticancer screen, dose series, 48 h
SNB-75 CNS = tested on: SNB-75 CNS
U251 CNS = tested on: U251 CNS
HT29 colon = tested on: HT29 colon
786-0 renal = tested on: 786-0 renal
HL-60(TB) leukemia = tested on: HL-60(TB) leukemia
UACC-257 melanoma = tested on: UACC-257 melanoma
M14 melanoma = tested on: M14 melanoma
PC-3 prostate = tested on: PC-3 prostate
SNB-19 CNS = tested on: SNB-19 CNS
CAKI-1 renal = tested on: CAKI-1 renal
MALME-3M melanoma = tested on: MALME-3M melanoma
HCT-116 colon = tested on: HCT-116 colon
SK-OV-3 ovarian = tested on: SK-OV-3 ovarian
KM12 colon = tested on: KM12 colon
MDA-MB-435 = tested on: MDA-MB-435
SN12C renal = tested on: SN12C renal
BT-549 breast = tested on: BT-549 breast
OVCAR-4 ovarian = tested on: OVCAR-4 ovarian
RXF 393 renal = tested on: RXF 393 renal
MOLT-4 leukemia = tested on: MOLT-4 leukemia
A498 renal = tested on: A498 renal
HS 578T breast = tested on: HS 578T breast
SK-MEL-28 melanoma = tested on: SK-MEL-28 melanoma
UO-31 renal = tested on: UO-31 renal
NCI/ADR-RES ovarian = tested on: NCI/ADR-RES ovarian
HOP-62 NSCLC = tested on: HOP-62 NSCLC
COLO 205 colon = tested on: COLO 205 colon
LOX IMVI melanoma = tested on: LOX IMVI melanoma
OVCAR-3 ovarian = tested on: OVCAR-3 ovarian
SW-620 colon = tested on: SW-620 colon

For `[N-]=[N+]=NCC(N)=O`, the GI50 (SNB-75 CNS) was > 100 µM, the TGI (SNB-75 CNS) was > 100 µM and the GI50 (U251 CNS) was > 100 µM. The TGI (U251 CNS) was > 100 µM, the GI50 (HT29 colon) was > 100 µM and the TGI (HT29 colon) was > 100 µM. For the same molecule, the GI50 (786-0 renal) was > 100 µM, the TGI (786-0 renal) was > 100 µM and the GI50 (HL-60(TB) leukemia) was > 100 µM. The TGI (HL-60(TB) leukemia) was > 100 µM, the GI50 (UACC-257 melanoma) was > 100 µM and the TGI (UACC-257 melanoma) was > 100 µM. The GI50 (M14 melanoma) was > 100 µM, the TGI (M14 melanoma) was > 100 µM and the GI50 (PC-3 prostate) was > 100 µM. For the same molecule, the TGI (PC-3 prostate) was > 100 µM, the GI50 (SNB-19 CNS) was > 100 µM and the TGI (SNB-19 CNS) was > 100 µM. The GI50 (CAKI-1 renal) was > 100 µM, the TGI (CAKI-1 renal) was > 100 µM and the GI50 (MALME-3M melanoma) was > 100 µM. For the same molecule, the TGI (MALME-3M melanoma) was > 100 µM, the GI50 (HCT-116 colon) was > 100 µM and the TGI (HCT-116 colon) was > 100 µM. For the same molecule, the GI50 (SK-OV-3 ovarian) was > 100 µM, the TGI (SK-OV-3 ovarian) was > 100 µM and the GI50 (KM12 colon) was > 100 µM. For the same molecule, the TGI (KM12 colon) was > 100 µM, the GI50 (MDA-MB-435) was > 100 µM and the TGI (MDA-MB-435) was > 100 µM. The GI50 (SN12C renal) was > 100 µM, the TGI (SN12C renal) was > 100 µM and the GI50 (BT-549 breast) was > 100 µM. The TGI (BT-549 breast) was > 100 µM, the GI50 (OVCAR-4 ovarian) was > 100 µM and the TGI (OVCAR-4 ovarian) was > 100 µM. For the same molecule, the GI50 (RXF 393 renal) was > 100 µM, the TGI (RXF 393 renal) was > 100 µM and the GI50 (MOLT-4 leukemia) was > 100 µM. For the same molecule, the TGI (MOLT-4 leukemia) was > 100 µM, the GI50 (A498 renal) was > 100 µM and the TGI (A498 renal) was > 100 µM. For the same molecule, the GI50 (HS 578T breast) was > 100 µM, the TGI (HS 578T breast) was > 100 µM and the GI50 (SK-MEL-28 melanoma) was > 100 µM. The TGI (SK-MEL-28 melanoma) was > 100 µM, the GI50 (UO-31 renal) was > 100 µM and the TGI (UO-31 renal) was > 100 µM. For the same molecule, the GI50 (NCI/ADR-RES ovarian) was > 100 µM, the TGI (NCI/ADR-RES ovarian) was > 100 µM and the GI50 (HOP-62 NSCLC) was > 100 µM. The TGI (HOP-62 NSCLC) was > 100 µM, the GI50 (COLO 205 colon) was > 100 µM and the TGI (COLO 205 colon) was > 100 µM. For the same molecule, the GI50 (LOX IMVI melanoma) was > 100 µM, the TGI (LOX IMVI melanoma) was > 100 µM and the GI50 (OVCAR-3 ovarian) was > 100 µM. The TGI (OVCAR-3 ovarian) was > 100 µM and the GI50 (SW-620 colon) was > 100 µM.
